Earlier results as cited in patent US20150359807A1, “Dietary Supplement Containing Vitamin A, D3 and Vitamin K2 and Uses Thereof” (Supernutrition Life-Extension Research, Inc., priority 2014, published 2015).

Settings: almost all adults, 21 studies

vitamin D
vitamin D intake shown to be safe for long-term use: ≤ 10,000 IU per day
